The target of this assay is T1, Shp2 N-terminal SH2 domain (Shp2_(NSH2)) (UniProt Q06124 6-102).
T1 construct: Shp2 (PTPN11), N-terminal SH2 domain; Atto 488 labelled in MST; uniformly 15N-labelled in the NMR titration; Perturbed residues up to Y100 are named, so the construct reaches at least residue 100; also called Shp2-NSH2 domain; source: E. coli BL21 (DE3), pET28b, purified (Talon buffers, Superdex SD75)
T1 sequence (looked up): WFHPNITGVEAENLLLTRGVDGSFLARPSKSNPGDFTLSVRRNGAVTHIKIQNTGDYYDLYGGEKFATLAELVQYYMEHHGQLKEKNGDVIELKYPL
The experiment in a line: MST; target protein labelled with Atto 488 NHS ester, 100 nM; unlabelled ligand serially diluted; Monolith NT.115; 25 °C; 20 mM HEPES pH 7.5, 150 mM NaCl, 0.5 mM TCEP, 0.005% Tween 20. As to conditions: both partners purified.

B1: isolated SH2 domain of Grb2 (Grb2SH2) (domain or fragment, UniProt P62993 60-152, looked up)
chain: WFFGKIPRAKAEEMLSKQRHDGAFLIRESESAPGDFSLSVKFGNDVQHFKVLRDGAGKYFLWVVKFNSLNELVDYHRSTSVSRNQQIFLRDIE
notes: Grb2, SH2 domain; The methods list only GST fusions of the Grb2 domains; source: E. coli BL21 (DE3)
One may read the Kd as the concentration at which binding is half-saturated. Consider B1, for which binding was characterised by a dissociation constant (Kd) of 33.8 ± 4.5 µM.

The values are drawn from PMC8016844, “Grb2 binding induces phosphorylation-independent activation of Shp2” (Communications Biology, 2021).
